# From patent publication US4032659A (priority 1975, dated 1977)
# Where two headings read alike, the source gives them in different places.
# How the values were obtained:
# Format in all cases: in vivo, mouse
# Influenza PR 8 virus = experiment: Chemoprophylaxis of Influenza PR 8 virus infection in mice
# Herpes virus = settings: oral
# [1] = system: Influenza B Massachusetts virus; experiment: Chemoprophylaxis of Influenza B Massachusetts virus infection in mice; settings: oral
# Procedure: The activity of four compounds on Influenza B Mass. was tested in mice.
# A portion of a commercially available sample of amantadine was recrystallized from isopropanol. The activity of the material against Influenza B Mass. was tested for the sample as obtained, the recrystallized portion, and the mother liquor obtained from recrystallizing the portion.
# [2] = system: Influenza Ann Arbor virus; experiment: Chemoprophylaxis of Influenza Ann Arbor (A1) virus infection in mice; settings: oral
# [3] = intravenous, no pre-infection, total dose 2 μg
# [4] = intravenous, no pre-infection, total dose 20 μg
# [5] = intravenous, no pre-infection, total dose .2 μg
compound,measurement,setting,value
"CCC(C)=NNC(N)=S [2-Butanone, thiosemicarbazone, 2-butanone, thiosemicarbazone]",Survivors,"Influenza PR 8 virus; drinking water 24 h post-infection only, second printed value (concentration column unclear)",3
same,Survivors,"Influenza PR 8 virus; drinking water 24 h pre- and 24 h post-infection, 5 mg/ml",3
same,Survivors,"Influenza PR 8 virus; drinking water 24 h pre- and 24 h post-infection, 10 mg/ml",2
same,Survivors,"Influenza PR 8 virus; drinking water 24 h pre- and 24 h post-infection, .05 mg/ml",3
same,No. animals surviving when 18/20 of controls are dead,Influenza PR 8 virus; [3],3
same,Survivors,Influenza PR 8 virus; [3],3
same,No. animals surviving when 18/20 of controls are dead,Influenza PR 8 virus; [4],3
same,Survivors,Influenza PR 8 virus; [4],3
same,No. animals surviving when 18/20 of controls are dead,Influenza PR 8 virus; [5],2
same,Survivors,Influenza PR 8 virus; [5],2
same,No. animals surviving when 19/20 of controls are dead,"Influenza PR 8 virus; oral, total dose .000005 μg",2
same,Survivors,"Influenza PR 8 virus; oral, total dose .00005 μg",2
same,No. animals surviving after 6 days,"Influenza PR 8 virus; oral, total dose .0005 μg",2
same,No. animals surviving after 7 days,"Influenza PR 8 virus; oral, total dose .0005 μg",3
same,No. animals surviving after 6 days,"Influenza PR 8 virus; oral, total dose .005 μg",2
same,No. animals surviving after 7 days,"Influenza PR 8 virus; oral, total dose .005 μg",2
same,No. animals surviving after 6 days,"Influenza PR 8 virus; subcutaneous, total dose .000005 μg",2
same,No. animals surviving after 6 days,"Influenza PR 8 virus; subcutaneous, total dose .00005 μg",3
same,No. animals surviving after 6 days,"Influenza PR 8 virus; subcutaneous, total dose .005 μg",3
same,Survivors,Herpes virus; total dose .00005 μg,3
same,No. animals surviving when 17/20 controls are dead,Herpes virus; total dose .005 μg,3
same,Survivors,Herpes virus; total dose .005 μg,2
"N=C(N)NN [aminoguanidine, bicarbonate]",No. animals surviving after 7 days,[1]; total dose 40pg,2
same,No. animals surviving after 7 days,[1]; total dose 400pg,4
same,Survivors,[1]; total dose 400pg,2
same,No. animals surviving after 7 days,[1]; total dose 4ng,4
same,No. animals surviving after 7 days,[1]; total dose 400ng,3
same,No. animals surviving after 7 days,[1]; total dose 4μg,3
"Cc1ccccc1NC(=S)NN=C1CCCC1 [cyclopentanone, 3-thio-4-o-tolylsemicarbazone]",Survivors,[2]; total dose 30 ng,1
same,No. animals surviving after 5 days,[2]; total dose 30 μg,5
